Most compounds without a hit are left out; they make up all but 1.3% or so of the library.
MLL AF4-AF9 inh: MLL-AF4/AF9 protein interaction inhibition | P42568 | inhibition, % at 10 µM | AlphaScreen, biotin-AF4 peptide binding to FLAG-AF9 | 0.47% of 350,000 active;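 active means every replicate reaching a set inhibition limit, whatever the replicate mean, cut at about 25% in these data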
Yeast UUG start: yeast start codon fidelity modulation | S. cerevisiae UUG-firefly luciferase reporter, luminescence/redox ratio | activity score, % at 18.7 µM | hit rate 0.13% among 350,000 | AID 602363;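 active means replicate mean at a twofold rise or more, about +100% in these data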;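 further: firefly luciferase made from a UUG start codon reports start codon fidelity; reporter light over untreated wells divided by growth signal over untreated wells; some hits fall short of that in this replicate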
ARNT TACC3 PPI: disrupts binding between human ARNT and TACC3. Q9Y6A5. 0.66% of 390,000 active. AlphaScreen His-ARNT PAS-B/GST-TACC3 binding, luminescence; TACC3 fragment carries E629A point mutation. inhibition, % at 9.99 µM. AID 623870;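 active means mean inhibition of replicates at least 50% and at least half of replicates each reaching 50%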
S100A4 inh HTS: inhibitors of human S100A4 binding to myosin IIA peptide. P26447. inhibition, % at 10.7 µM. S100A4/TAMRA-MyoIIA peptide fluorescence polarization. 0.14% of 360,000 active;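 active means mean inhibition of at least 70% across replicates, with every replicate also reaching that level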
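Test system – S100A4 monomer (human) · Compound – single-point compound testing · Schedule – 5 min incubation before reading · Probe or stimulus – TAMRA-labelled myosin IIA heavy-chain peptide probe, 5 nM · Benchmarks – neutral control DMSO, positive control TFP · Medium – Calcium-containing HEPES buffer, pH 7.2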
ERAP1 HTS inh: inhibitors of human ERAP1 aminopeptidase | 0.15% of 340,000 active | Q9NZ08 | recombinant ERAP1, Leu-AMC fluorescence, 60 min | inhibition, % at 10.7 µM | AID 652197;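 active means mean replicate inhibition of at least 30%, or all replicates individually reaching that 30% level; inactive means mean below 30% and not every replicate reaching it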
E-selectin induc: E-selectin induction on HUVECs; P16581; HUVEC E-selectin immunofluorescence imaging; normalized: neutral wells 0, TNF-alpha wells 100; activation, % at 7.58 µM; 0.37% of 260,000 active; AID 686992;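 active means mean E-selectin-positive cell signal at least 10% of the positive control, reached in at least 60% of replicates, without over 20% cell loss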
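Assay system: HUVEC, human umbilical vein endothelial cells / Amount: 3,000 HUVEC/well / Controls: TNF-alpha positive control, DMSO neutral control / Compound dosing: single concentration / Medium: EGM-2 over gelatin coat / Evaluation: percent E-selectin-positive cells / Signal: immunofluorescence imaging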
ARNT Alpha ctr-1: interferes with AlphaScreen signal, flagging false ARNT-TACC3 hits; shares compounds with ARNT TACC3 PPI; His-ARNT PASB-GST AlphaScreen artifact counter-screen, luminescence; AC50, µM (highest dose often 68 µM); 50% of 1,200 active; AID 651705;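 active means every separate test run was called active for a drop in luminescence, with AC50 within twice the top valid dose, actives reach about 71 µM in these data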
ARNT Alpha ctr-2: produces AlphaScreen artifacts in ARNT-TACC3 counter-screen | shares compounds with ARNT TACC3 PPI | Dual-tagged His-ARNT PASB-GST AlphaScreen artifact counter-screen | AC50, µM | 70% of 45 active;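 active means luminescence drop, with half-maximal potency fitted within twice the sample's top valid dose, cut at about 70 µM in these data; inactive means the rest, including signal moving the wrong way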
Each line names hits and unclear results; the compound was inactive in the other large screens (follow-up assays come after a bar, where they were run).

COc1ccccc1C(=O)Nc1ccc2c(c1)OC[C@@H](C)N(C)C[C@@H](C)[C@@H](OC)CN(C)C2=O	none
CC(C)NC(=O)Nc1ccc2c(c1)C(=O)N([C@@H](C)CO)C[C@H](C)[C@H](CN(C)C(=O)Cc1ccccc1)OCCCC[C@@H](C)O2	none (no result: Yeast UUG start)
COc1ccc(NC(=O)Nc2ccc3c(c2)C(=O)N([C@H](C)CO)C[C@@H](C)[C@@H](CN(C)C(=O)CCC(F)(F)F)OCCCC[C@H](C)O3)cc1	ARNT TACC3 PPI active | ARNT Alpha ctr-1 inactive
CC(C)NC(=O)N(C)C[C@H]1OCCCC[C@H](C)Oc2ccc(NC(=O)Nc3ccccc3)cc2C(=O)N([C@H](C)CO)C[C@@H]1C	ARNT TACC3 PPI 108.0 (no result: Yeast UUG start, E-selectin induc) | ARNT Alpha ctr-1 inactive
CC(C)NC(=O)N(C)C[C@H]1OCCCC[C@@H](C)Oc2ccc(NC(=O)Nc3ccccc3)cc2C(=O)N([C@@H](C)CO)C[C@H]1C	none (no result: Yeast UUG start, E-selectin induc)
CC(C)NC(=O)Nc1ccc2c(c1)C(=O)N([C@H](C)CO)C[C@H](C)[C@@H](CN(C)C(=O)Cc1ccccc1)OCCCC[C@H](C)O2	ARNT TACC3 PPI 96.7 (no result: Yeast UUG start) | ARNT Alpha ctr-1 inactive
Cc1[nH]nc2c1C(c1ccc(OC(=O)c3ccco3)cc1)C(C#N)=C(N)O2 (stereo not drawn)	none (no result: MLL AF4-AF9 inh, S100A4 inh HTS, ERAP1 HTS inh, E-selectin induc)
COc1cc(C2C(C#N)=C(N)Oc3n[nH]c(C)c32)ccc1OC(=O)c1ccccc1 (stereo not drawn)	ARNT TACC3 PPI 60.3 (no result: MLL AF4-AF9 inh, S100A4 inh HTS, ERAP1 HTS inh, E-selectin induc) | ARNT Alpha ctr-1 inactive
Cc1ccc(S(=O)(=O)N(C)C[C@H]2OCCCC[C@H](C)Oc3ccc(NC(=O)NC(C)C)cc3C(=O)N([C@H](C)CO)C[C@@H]2C)cc1	none
CC(C)Cc1nnc(NC(=O)c2cccc(S(=O)(=O)N3CCN(C)CC3)c2)s1	none (no result: E-selectin induc)
CN1CCN(S(=O)(=O)c2cccc(C(=O)Nc3cc(C(N)=O)cc(C(N)=O)c3)c2)CC1	none
CC(C)Cc1nnc(NC(=O)c2cccc(S(=O)(=O)N3CCOCC3)c2)s1	none (no result: ARNT TACC3 PPI, E-selectin induc) | ARNT Alpha ctr-2 inactive
CN1CCN(S(=O)(=O)c2cccc(C(=O)Nc3sccc3C(N)=O)c2)CC1	ARNT TACC3 PPI 45.8 | ARNT Alpha ctr-1 44.3µM
COc1ccc(S(=O)(=O)Nc2ccc3c(c2)C(=O)N([C@@H](C)CO)C[C@@H](C)[C@H](CN(C)C(=O)CCCN(C)C)OCCCC[C@@H](C)O3)cc1	none
O=C(C[C@H]1CC[C@H](NS(=O)(=O)c2cccc(F)c2)[C@H](CO)O1)NCc1ccc2c(c1)OCO2	none
O=C(Nc1ccc2nc3ccccc3nc2c1)c1ccc(Br)cc1	none (no result: MLL AF4-AF9 inh, S100A4 inh HTS, ERAP1 HTS inh, E-selectin induc)
CC(=O)Nc1ccc2nc3ccccc3nc2c1	ARNT TACC3 PPI 32.1 (no result: Yeast UUG start) | ARNT Alpha ctr-1 inactive
Cc1cc(C)c(S(=O)(=O)N2CCOC2CNC(=O)C(=O)NCCCn2ccnc2)c(C)c1 (stereo not drawn)	ARNT TACC3 PPI 62.9 (no result: Yeast UUG start) | ARNT Alpha ctr-1 42.4µM
CCOC(=O)c1c(C)[nH]c(N=Nc2cccc(C)c2)c1C	ARNT TACC3 PPI 36.2 (no result: MLL AF4-AF9 inh, S100A4 inh HTS, ERAP1 HTS inh, E-selectin induc) | ARNT Alpha ctr-1 21.3µM
Cc1ccc(-c2nc(C)sc2CC(=O)NCc2ccco2)cc1	ARNT TACC3 PPI active (no result: MLL AF4-AF9 inh, S100A4 inh HTS, ERAP1 HTS inh, E-selectin induc) | ARNT Alpha ctr-1 inactive
Cc1ccc(NC(=O)Cc2sc(C)nc2-c2ccc(C)cc2)cc1	none (no result: MLL AF4-AF9 inh, Yeast UUG start, S100A4 inh HTS, ERAP1 HTS inh)
Cc1c(CCC(=O)O)c(=O)oc2c(C)c3occ(-c4ccc(Cl)cc4)c3cc12	ARNT TACC3 PPI 56.2 | ARNT Alpha ctr-1 61.9µM
Cc1ccsc1C(=O)OCC(=O)Nc1nnc(-c2ccccc2)o1	ARNT TACC3 PPI 56.7 | ARNT Alpha ctr-1 64.3µM
O=C(COC(=O)c1ccc(Cl)nc1)Nc1nnc(-c2ccccc2)o1	ARNT TACC3 PPI 79.5 | ARNT Alpha ctr-1 inactive
CC=Cc1ccc2n(c1=O)C[C@H]1[C@H](CO)[C@@H](C(=O)Nc3ccccc3)[C@@H]2N1C(=O)CC1CC1 (mixture of isomers)	none (no result: Yeast UUG start)
O=c1ccc2cc3c4c(c2o1)CCCN4CCC3	none

Assay outcomes deposited in PubChem by Broad Institute.
